Measured values as given in US8263596B2, “Kinase inhibitors and method of treating cancer” (University Health Network, priority 2010, dated 2012).
Read-outs that look alike come from different tables or passages of the source.

Biological target: T1, human PLK4 (Homo sapiens, UniProt O00444)
T1 construct: amino terminal GST fusion of residues 1-391 of human PLK4; made in house; host or cells: E. coli
T1 sequence (O00444 1-391): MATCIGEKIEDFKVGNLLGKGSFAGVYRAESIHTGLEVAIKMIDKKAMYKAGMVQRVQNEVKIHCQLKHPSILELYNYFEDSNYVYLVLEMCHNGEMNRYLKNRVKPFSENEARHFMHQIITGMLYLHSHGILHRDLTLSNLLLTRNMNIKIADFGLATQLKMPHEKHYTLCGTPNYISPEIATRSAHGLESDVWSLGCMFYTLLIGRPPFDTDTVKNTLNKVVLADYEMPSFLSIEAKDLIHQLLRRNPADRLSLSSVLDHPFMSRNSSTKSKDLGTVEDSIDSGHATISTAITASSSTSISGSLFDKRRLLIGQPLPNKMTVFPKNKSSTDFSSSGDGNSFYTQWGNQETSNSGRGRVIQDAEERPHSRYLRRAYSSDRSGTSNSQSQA
Experiment: PLK4 inhibition assay (indirect ELISA)
Assay type: biochemical

IC50 (read-out: IC50 Ranges PLK4) [nM] | IC50 [nM] | Structure (SMILES)
< 100 | – | COc1ccc2c(c1)[C@]1(C[C@H]1c1ccc3c(-c4ccc(N5CCOCC5)nc4)n[nH]c3c1)C(=O)N2 (relative stereo) [Example A20]
– | < 100 | COc1ccc2c(c1)[C@]1(C[C@H]1c1ccc3c(-c4ccc(CN(C)C)cc4)n[nH]c3c1)C(=O)N2 (relative stereo) [Example A166, (1R*,2S*)-2-(3-(4-((dimethylamino)methyl)phenyl)-1H-indazol-6-yl)-5′-methoxyspiro[cyclopropane-1,3′-indolin]-2′-one 2,2,2-trifluoroacetate]
